Reference: patent publication US10363320B2, “Conjugate comprising oxyntomodulin and an immunoglobulin fragment, and use thereof” (HANMI SCIENCE CO., LTD, priority 2011, dated 2019)

Protein sequences, listed by entry. Tags and fused reporters are not part of them. Residues count along the entry.
UniProt P43220, 24-463: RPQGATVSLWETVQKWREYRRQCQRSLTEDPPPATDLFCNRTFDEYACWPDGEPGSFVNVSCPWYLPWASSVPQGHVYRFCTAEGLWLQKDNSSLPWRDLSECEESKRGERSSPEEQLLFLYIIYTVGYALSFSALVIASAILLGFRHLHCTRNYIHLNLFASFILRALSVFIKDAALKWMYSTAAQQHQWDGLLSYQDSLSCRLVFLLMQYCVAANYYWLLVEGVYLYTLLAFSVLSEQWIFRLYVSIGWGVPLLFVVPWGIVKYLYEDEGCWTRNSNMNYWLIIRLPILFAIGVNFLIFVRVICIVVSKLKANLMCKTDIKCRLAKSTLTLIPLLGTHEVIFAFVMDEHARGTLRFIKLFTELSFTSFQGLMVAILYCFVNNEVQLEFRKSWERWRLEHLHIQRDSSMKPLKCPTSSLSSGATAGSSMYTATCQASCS

Biological target: T1, human GLP-1 receptor (Homo sapiens, UniProt P43220)
T1 construct: host or cells: CHO DG44
Assay: cAMP response in CHO cell line expressing human GLP-1 receptor (CHO/GLP-1R)
Type: cell-based
Details: read-out: EC50 CHO/GLP-1R, Table 3, Fc conjugates, GLP-1, glucagon, 37° C. for 1 hour
Procedure: The PCR product was cloned into the known animal cell expression vector x0GC/dhfr to prepare a recombinant vector x0GC/GLP1R.
CHO DG44 cell line cultured in DMEM/F12 (10% FBS) medium was transfected with the recombinant vector x0GC/GLP1R using LIPOFECTAMINE® (INVITROGEN®, USA), and cultured in a selection medium containing 1 mg/mL G418 and 10 nM methotraxate.
The cultured cells were washed with KRB buffer and suspended in 40 ml of KRB buffer containing 1 mM IBMX, and left at room temperature for 5 minutes. […] Then, 20 mL of cell lysis buffer was added for cell lysis, and the cell lysates were applied to a cAMP assay kit (Molecular Device, USA) to measure cAMP concentrations. EC50 values were calculated therefrom, and compared to each other.
Each of the cultured transformants was washed with KRB buffer and suspended in 40 ml of KRB buffer containing 1 mM IBMX, and left at room temperature for 5 minutes. […] Then, 20 ml of cell lysis buffer was added for cell lysis, and the cell lysates were applied to a cAMP assay kit (Molecular Device, USA) to measure cAMP concentrations using a Victor (PERKIN ELMER®, USA). EC50 values were calculated therefrom, and compared to each other (Table 3).

EC50: > 1000 nM
Substance: Glucagon [reference compound]
